Source: ChEMBL document CHEMBL2069301, “Exploration of the structure-activity relationship of the diaryl anilide class of ligands for translocator protein--potential novel positron emitting tomography imaging agents” (Bioorg Med Chem Lett, 2012)

Columns and labels:
Striatum [1] = assay: Ratio of biodistribution in striatum at 2 mins post dose to biodistribution in striatum post 30 mins in naive Wistar rat at 1 to 3 MBq, iv using [18F] labeled compound; assay type: ADME, organism-based; conditions: in vivo
Striatum [2] = assay: Ratio of biodistribution in olfactory bulbs to striatum of in naive Wistar rat at 1 to 3 MBq, iv using [18F] labeled compound measured 30 mins post dose; assay type: ADME, organism-based; conditions: in vivo, 0.5 h

`COc1ccc(OC)c(CN(C(=O)C[18F])c2ccccc2Oc2ccccc2)c1` showed a Ratio (Striatum [1]) of 4.64 and a Ratio (Striatum [2]) of 3.5.
